According to the supplement of paper PMC5579334:

Columns and labels:
HS-PSS [1] = test: drug sensitivity score (DSS, CellTox-Green cytotoxicity, 72 h) (DSS (dimensionless)); higher = more cytotoxic; extreme values may be limits of the assay
Outline: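 MPNST cell lines and primary human Schwann cells were incubated 72 h at 37 °C in 384-well plates holding five 10-fold compound dilutions. CellTox-Green was added before seeding at a final 1:1000 dilution and reported fluorescence from DNA released by disrupted cells. Signals were scaled to vehicle and positive-control wells, and cultures failing plate quality control were dropped. Drug sensitivity score and relative IC50 come from four-parameter logistic fits, with IC50 censored at the top concentration.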

HS-Sch-2 [2] = test: drug sensitivity score (DSS, CellTiter-Glo viability, 72 h) (DSS (dimensionless)); higher = more sensitive; extreme values may be limits of the assay
Outline: (§1)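 MPNST cell lines and primary human Schwann cells (750–1000 cells per well) went into 384-well plates preprinted with each compound at five concentrations in 10-fold steps. Plates were incubated 72 h at 37 °C, 5% CO2. Viability was read as CellTiter-Glo ATP luminescence, scaled between vehicle and positive-control wells, with duplicates averaged where present. Percent inhibition is at the top concentration; drug sensitivity score and relative IC50 (censored at top concentration) come from four-parameter logistic fits.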

YST-1 [3] = test: as above
Outline: as §1

HS-PSS [4] = test: as above
Outline: as §1

HS-Sch-2 [5] = test: % inhibition of CellTiter-Glo viability at highest tested concentration (72 h), relative to DMSO and benzethonium chloride controls; higher = more inhibition
Outline: as §1

YST-1 [6] = test: as above
Outline: as §1

HS-PSS [7] = test: as above
Outline: as §1

NCc1ccc(OCCCc2sc(-c3ccc4c(c3)/C(=N/Nc3nc5ccccc5s3)CCC4)nc2C(=O)O)cc1 [WEHI-539] (max concentration tested 2500 nM) showed a drug sensitivity score (HS-PSS [1]) of 0.07, a drug sensitivity score (HS-Sch-2 [2]) of 0.37 and a drug sensitivity score (YST-1 [3]) of 1.43. The drug sensitivity score (HS-PSS [4]) was 0.33, the “% inhibition” value (HS-Sch-2 [5]) was 8.73% and the “% inhibition” value (YST-1 [6]) was 19.2%. The “% inhibition” value (HS-PSS [7]) was 16.4%.
